Results reported in patent US6936585B2, “Corticotropin releasing factor 2 receptor agonists” (priority 2002, dated 2005).

Legend:
CRF2R = biological target: T1, CRF2R (Homo sapiens, UniProt Q13324); test: CRF2R agonist activation (EC50 / Emax), called comparative CRF binding; format: cell-based; conditions: for Emax: read-out: CRF2R Emax
T1 sequence (Q13324 1-411): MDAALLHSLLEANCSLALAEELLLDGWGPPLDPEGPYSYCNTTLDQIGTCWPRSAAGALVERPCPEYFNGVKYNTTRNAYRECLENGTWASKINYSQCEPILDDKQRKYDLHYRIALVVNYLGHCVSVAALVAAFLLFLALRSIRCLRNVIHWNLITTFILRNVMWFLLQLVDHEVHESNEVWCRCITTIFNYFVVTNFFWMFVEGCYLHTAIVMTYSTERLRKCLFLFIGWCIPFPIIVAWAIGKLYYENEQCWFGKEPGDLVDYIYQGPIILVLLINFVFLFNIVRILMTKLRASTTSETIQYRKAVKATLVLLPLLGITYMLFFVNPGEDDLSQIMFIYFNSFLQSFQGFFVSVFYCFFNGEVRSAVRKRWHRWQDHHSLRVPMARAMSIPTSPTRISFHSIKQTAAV
Procedure, shortened: (§1)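 Cells expressing human CRF1R or CRF2R are exposed to peptide or vehicle control, and receptor activation is read as cAMP induction, measured in cell lysates or via a CRE-linked reporter gene.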

CRF1R = biological target: T2, CRF1R (Homo sapiens, UniProt P34998); test: CRF1R agonist activation (EC50 / Emax), called comparative CRF binding; format: cell-based; conditions: for Emax: read-out: CRF1R Emax; for EC50: CRF1R EC50
T2 sequence (P34998 24-415): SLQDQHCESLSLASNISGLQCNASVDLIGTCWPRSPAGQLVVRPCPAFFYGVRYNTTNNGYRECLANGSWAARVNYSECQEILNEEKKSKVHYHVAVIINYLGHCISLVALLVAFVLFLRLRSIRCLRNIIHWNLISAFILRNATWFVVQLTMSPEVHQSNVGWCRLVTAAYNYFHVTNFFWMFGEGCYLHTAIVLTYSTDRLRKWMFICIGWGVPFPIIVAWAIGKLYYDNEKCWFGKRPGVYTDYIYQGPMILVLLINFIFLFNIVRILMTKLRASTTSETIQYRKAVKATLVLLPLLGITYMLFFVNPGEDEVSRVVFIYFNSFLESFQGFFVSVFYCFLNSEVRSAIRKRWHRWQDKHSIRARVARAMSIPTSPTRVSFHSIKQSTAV
Procedure, shortened: as §1

Structure (SMILES): CC[C@H](C)[C@H](NC(=O)[C@@H](NC(=O)[C@H](CC(=O)O)NC(=O)[C@H](CC(C)C)NC(=O)[C@H](CC(C)C)NC(=O)[C@H](CC(C)C)NC(=O)[C@H](C)NC(=O)[C@H](CC(N)=O)NC(=O)[C@H](CC(N)=O)NC(=O)[C@H](C)NC(=O)[C@H](C)NC(=O)[C@H](CCC(N)=O)NC(=O)[C@H](CCC(N)=O)NC(=O)[C@H](CCCCN)NC(=O)[C@H](CCC(=O)O)NC(=O)[C@H](CCCCN)NC(=O)[C@H](CCC(=O)O)NC(=O)[C@H](CCC(N)=O)NC(=O)[C@H](CCCCN)NC(=O)[C@H](CCC(=O)O)NC(=O)[C@@H](NC(=O)[C@H](CCC(=O)O)NC(=O)[C@@H](NC(=O)[C@H](CCSC)NC(=O)[C@H](CCCCN)NC(=O)[C@H](CCCNC(=N)N)NC(=O)[C@H](CC(C)C)NC(=O)[C@H](CC(C)C)NC(=O)[C@H](Cc1ccc(O)cc1)NC(=O)[C@H](CC(C)C)NC(=O)[C@@H]1CCCN1C(=O)[C@H](CC(C)C)NC(=O)[C@H](CC(=O)O)NC(=O)[C@@H](NC(=O)[C@H](CO)NC(=O)[C@@H](NC(=O)[C@@H]1CCCN1C(=O)[C@@H]1CCCN1C(=O)CNC(=O)[C@@H]1CCC(=O)N1)[C@@H](C)CC)[C@@H](C)CC)[C@@H](C)CC)[C@@H](C)CC)[C@@H](C)O)C(N)=O [compound 244]
- Emax (CRF2R): 98%
- Emax (CRF1R): 100%

Structure (SMILES): CC[C@H](C)[C@H](NC(=O)[C@@H](NC(=O)[C@H](CC(=O)O)NC(=O)[C@H](CC(C)C)NC(=O)[C@H](CC(C)C)NC(=O)[C@H](CC(C)C)NC(=O)[C@H](CCCNC(=N)N)NC(=O)[C@H](CC(N)=O)NC(=O)[C@H](CC(N)=O)NC(=O)[C@H](C)NC(=O)[C@H](C)NC(=O)[C@H](CCC(N)=O)NC(=O)[C@H](CCC(N)=O)NC(=O)[C@H](CCCCN)NC(=O)[C@H](CCC(=O)O)NC(=O)[C@H](CCCCN)NC(=O)[C@H](CCC(=O)O)NC(=O)[C@H](CCC(N)=O)NC(=O)[C@H](CCCCN)NC(=O)[C@H](CCC(=O)O)NC(=O)[C@@H](NC(=O)[C@H](CCC(=O)O)NC(=O)[C@@H](NC(=O)[C@H](CCSC)NC(=O)[C@H](CCCCN)NC(=O)[C@H](CCCNC(=N)N)NC(=O)[C@H](CC(C)C)NC(=O)[C@H](CC(C)C)NC(=O)[C@H](CCC(N)=O)NC(=O)[C@@H](NC(=O)[C@@H]1CCCN1C(=O)[C@H](CC(C)C)NC(=O)[C@H](CC(=O)O)NC(=O)[C@@H](NC(=O)[C@H](CO)NC(=O)[C@@H](NC(=O)[C@@H]1CCCN1C(=O)[C@@H]1CCCN1C(=O)CNC(=O)[C@@H]1CCC(=O)N1)[C@@H](C)CC)[C@@H](C)CC)[C@@H](C)CC)[C@@H](C)CC)[C@@H](C)CC)[C@@H](C)O)C(N)=O [compound 78]
- EC50 (CRF2R): 24.6 nM
- Emax (CRF2R): 78%
- EC50 (CRF1R): > 100 nM
- Emax (CRF1R): 6%

Structure (SMILES): CC[C@H](C)[C@H](NC(=O)[C@@H](NC(=O)[C@H](CC(=O)O)NC(=O)[C@H](CC(C)C)NC(=O)[C@H](CC(C)C)NC(=O)[C@H](CCCNC(=N)N)NC(=O)[C@H](C)NC(=O)[C@H](CC(N)=O)NC(=O)[C@H](CC(N)=O)NC(=O)[C@H](C)NC(=O)[C@H](C)NC(=O)[C@H](CCC(N)=O)NC(=O)[C@H](CCC(N)=O)NC(=O)[C@H](CCCCN)NC(=O)[C@H](CCC(=O)O)NC(=O)[C@H](CCCCN)NC(=O)[C@H](CCC(=O)O)NC(=O)[C@H](CCC(N)=O)NC(=O)[C@H](CCCCN)NC(=O)[C@H](CCC(=O)O)NC(=O)[C@@H](NC(=O)[C@H](CCC(=O)O)NC(=O)[C@@H](NC(=O)[C@@H](NC(=O)[C@H](CCCCN)NC(=O)[C@H](CCCNC(=N)N)NC(=O)[C@H](CC(C)C)NC(=O)[C@H](CC(C)C)NC(=O)[C@H](CCC(N)=O)NC(=O)[C@H](Cc1ccccc1)NC(=O)[C@@H]1CCCN1C(=O)[C@@H](NC(=O)[C@H](CC(=O)O)NC(=O)[C@@H](NC(=O)[C@H](CO)NC(=O)[C@@H](NC(=O)[C@@H]1CCCN1C(=O)[C@@H]1CCCN1C(=O)CNC(=O)[C@@H]1CCC(=O)N1)[C@@H](C)CC)[C@@H](C)CC)C(C)C)C(C)C)[C@@H](C)CC)[C@@H](C)CC)[C@@H](C)O)C(N)=O [compound 382]
- Emax (CRF2R): 100%
- Emax (CRF1R): 8%

Structure (SMILES): CC[C@H](C)[C@H](NC(=O)[C@H](CCCNC(=N)N)NC(=O)[C@H](C)NC(=O)[C@H](CC(N)=O)NC(=O)[C@@H](NC(=O)[C@@H](NC(=O)[C@H](C)NC(=O)[C@H](CCC(N)=O)NC(=O)[C@H](CCC(N)=O)NC(=O)[C@H](CCCCN)NC(=O)[C@H](CCC(=O)O)NC(=O)[C@H](CCCCN)NC(=O)[C@H](CCC(=O)O)NC(=O)[C@H](CCC(N)=O)NC(=O)[C@H](CCCCN)NC(=O)[C@H](CCC(=O)O)NC(=O)[C@@H](NC(=O)[C@H](CCC(=O)O)NC(=O)[C@@H](NC(=O)[C@H](CCSC)NC(=O)[C@H](CCCCN)NC(=O)[C@H](CCCNC(=N)N)NC(=O)[C@H](CC(C)C)NC(=O)[C@H](CC(C)C)NC(=O)[C@H](Cc1ccc(O)cc1)NC(=O)[C@@H](NC(=O)[C@@H]1CCCN1C(=O)[C@H](CC(C)C)NC(=O)[C@H](CC(=O)O)NC(=O)[C@@H](NC(=O)[C@H](CO)NC(=O)[C@@H](NC(=O)[C@@H]1CCCN1C(=O)[C@@H]1CCCN1C(=O)CNC(=O)[C@@H]1CCC(=O)N1)[C@@H](C)CC)[C@@H](C)CC)[C@@H](C)O)[C@@H](C)CC)[C@@H](C)CC)[C@@H](C)O)[C@@H](C)O)C(=O)N[C@@H](CC(C)C)C(=O)N[C@@H](C)C(=O)N[C@@H](CCCNC(=N)N)C(=O)N[C@H](C(N)=O)C(C)C [compound 151]
- Emax (CRF2R): 96%
- Emax (CRF1R): 19.9%

Structure (SMILES): CC[C@H](C)[C@H](NC(=O)[C@H](CCCNC(=N)N)NC(=O)[C@H](C)NC(=O)[C@H](CC(C)C)NC(=O)[C@H](CC(C)C)NC(=O)[C@H](CCCNC(=N)N)NC(=O)[C@H](C)NC(=O)[C@H](CC(N)=O)NC(=O)[C@H](CC(N)=O)NC(=O)[C@H](C)NC(=O)[C@H](C)NC(=O)[C@H](CCC(N)=O)NC(=O)[C@H](CCC(N)=O)NC(=O)[C@H](CCCCN)NC(=O)[C@H](CCC(=O)O)NC(=O)[C@H](CCCCN)NC(=O)[C@H](CCC(=O)O)NC(=O)[C@H](CCC(N)=O)NC(=O)[C@H](CCCCN)NC(=O)[C@H](CCC(=O)O)NC(=O)[C@@H](NC(=O)[C@H](CCC(=O)O)NC(=O)[C@@H](NC(=O)[C@@H](NC(=O)[C@H](CCCCN)NC(=O)[C@H](CCCNC(=N)N)NC(=O)[C@H](CC(C)C)NC(=O)[C@H](CC(C)C)NC(=O)[C@H](CCC(N)=O)NC(=O)[C@H](CC(C)C)NC(=O)[C@@H]1CCCN1C(=O)[C@@H](NC(=O)[C@H](CC(=O)O)NC(=O)[C@@H](NC(=O)[C@H](CO)NC(=O)[C@@H](NC(=O)[C@@H]1CCCN1C(=O)[C@@H]1CCCN1C(=O)CNC(=O)[C@@H]1CCC(=O)N1)[C@@H](C)CC)[C@@H](C)CC)C(C)C)C(C)C)[C@@H](C)CC)[C@@H](C)CC)C(N)=O [compound 381]
- EC50 (CRF2R): 12.7 nM
- Emax (CRF2R): 99%
- EC50 (CRF1R): ≥ 1000 nM
- Emax (CRF1R): 27%

Structure (SMILES): CC[C@H](C)[C@H](NC(=O)[C@@H](NC(=O)[C@H](C)NC(=O)[C@H](CC(C)C)NC(=O)[C@H](CC(C)C)NC(=O)[C@H](CC(C)C)NC(=O)[C@H](C)NC(=O)[C@H](CC(N)=O)NC(=O)[C@H](CC(N)=O)NC(=O)[C@H](C)NC(=O)[C@H](C)NC(=O)[C@H](CCC(N)=O)NC(=O)[C@H](CCC(N)=O)NC(=O)[C@H](CCCCN)NC(=O)[C@H](CCC(=O)O)NC(=O)[C@H](CCCCN)NC(=O)[C@H](CCC(=O)O)NC(=O)[C@H](CCC(N)=O)NC(=O)[C@H](CCCCN)NC(=O)[C@H](CCC(=O)O)NC(=O)[C@@H](NC(=O)[C@H](CCC(=O)O)NC(=O)[C@@H](NC(=O)[C@H](C)NC(=O)[C@H](CCCCN)NC(=O)[C@H](CCCNC(=N)N)NC(=O)[C@H](CC(C)C)NC(=O)[C@H](CC(C)C)NC(=O)[C@H](CCC(N)=O)NC(=O)[C@H](Cc1ccccc1)NC(=O)[C@@H]1CCCN1C(=O)[C@H](CC(C)C)NC(=O)[C@H](CC(=O)O)NC(=O)[C@@H](NC(=O)[C@H](CO)NC(=O)[C@@H](NC(=O)[C@@H]1CCCN1C(=O)[C@@H]1CCCN1C(=O)CNC(=O)[C@@H]1CCC(=O)N1)[C@@H](C)CC)[C@@H](C)CC)[C@@H](C)CC)[C@@H](C)CC)[C@@H](C)O)C(N)=O [compound 364]
- Emax (CRF2R): 100%
- Emax (CRF1R): 27%
